## Ab-95 light chain CDR variants: yeast mating affinities

The measurements come from Engelhart et al. 2022 (doi:10.1038/s41597-022-01779-4) through the FLAb antibody collection.

Antigen: PDVDLGDISGINAS, a 14-residue peptide of the SARS-CoV-2 spike HR2 region.

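Phage display of a naive human antibody library on the peptide gave the parent. In library AAYL52, one, two or three CDR residues were substituted; doubles and triples were drawn at random. In AlphaSeq, yeast of one mating type display the scFv and yeast of the other type display the target. Mating (16 h, 30 °C) was followed by selection of diploids and sequencing of their barcodes. Each replicate has its own calibration line, from reference interactions of the BCL2 family. Mating was done three times.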

Each scFv is VH, the linker GGGGSGGGGSGGGGS, VL, as in the parent Ab-95, and differs from it in the CDRs of the light chain only.
VH: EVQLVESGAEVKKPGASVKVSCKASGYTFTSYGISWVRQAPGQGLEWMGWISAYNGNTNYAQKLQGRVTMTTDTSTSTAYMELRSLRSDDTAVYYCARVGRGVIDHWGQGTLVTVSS
VL: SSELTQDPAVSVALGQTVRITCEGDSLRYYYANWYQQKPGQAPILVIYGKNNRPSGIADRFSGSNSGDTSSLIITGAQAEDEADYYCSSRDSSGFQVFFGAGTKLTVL

Changes read parent residue, position, new residue, counted from the first residue of the VL shown.
All variants listed here change S88 of the VL, counted from its first residue.
The read-out is the apparent dissociation constant on a log10 scale (nM): the lower, the stronger.
The mean shown is taken over the replicates in which the pair was detected.
Where no diploid with the target was found in any replicate, the entry reads "no signal": below detection, most likely a poor binder, though not proof of it.
As a blank, each scFv also met three strains without target: over library AAYL52, 28% of these pairings were detected, typically at 3.91 and seldom below 2.90. For each scFv, signals with the empty controls are counted beside the result.

The variant S26D S88D S92T gave 1.69 (3 of 3 replicates; controls 0 of 9). With G24K D25F S88Y the result was no signal (0 of 3 replicates; controls 2 of 9). The variant P54E S88F G94H showed 4.23 (2 of 3 replicates; controls 3 of 9). With R28Y K50C S88A the result was 3.26 (1 of 3 replicates; controls 1 of 9). With S26E G49V S88V the result was 3.44 (2 of 3 replicates; controls 4 of 9). The variant R28F S88A G94R showed 3.16 (2 of 3 replicates; controls 3 of 9).

For R28T A32C S88L, the assay gave 3.54 (2 of 3 replicates; controls 1 of 9). With L27R R28I S88I the result was 4.39 (3 of 3 replicates; controls 6 of 9). For N52M S88I, the assay gave 4.26 (1 of 3 replicates; controls 1 of 9). For N33F S88E G94M, the assay gave 4.45 (2 of 3 replicates; controls 3 of 9). The variant S88V Q96W showed 3.81 (1 of 3 replicates; controls 1 of 9). With Y31G S88P the result was no signal (0 of 3 replicates; controls 1 of 9).

The variant Y31T N51A S88Y gave 3.75 (3 of 3 replicates; controls 0 of 9). The variant D25N S88H S93L showed 2.63 (3 of 3 replicates; controls 6 of 9). The variant N52E S88F S92H showed 3.33 (3 of 3 replicates; controls 1 of 9). The variant D25R S88Y F98I showed 2.61 (3 of 3 replicates; controls 5 of 9). The variant K50I R53H S88A gave 3.46 (2 of 3 replicates; controls 1 of 9). The variant R28Y S88D showed 4.03 (2 of 3 replicates; controls 3 of 9).

The variant R28C K50H S88Y showed 4.16 (2 of 3 replicates; controls 2 of 9). For Y31C A32P S88M, the assay gave 1.25 (3 of 3 replicates; controls 2 of 9). The variant P54F S88I S89G gave 4.78 (2 of 3 replicates; controls 3 of 9). The variant G49K K50I S88P showed 4.35 (2 of 3 replicates; controls 1 of 9). With S88E the result was 1.83 (3 of 3 replicates; controls 2 of 9). The variant R28Y R53K S88N gave 3.59 (3 of 3 replicates; controls 2 of 9).

With E23D S88T the result was 3.74 (2 of 3 replicates; controls 3 of 9). The variant N52D S88F Q96S showed 4.42 (3 of 3 replicates; controls 5 of 9). For S55K S88M F98E, the assay gave 2.46 (3 of 3 replicates; controls 4 of 9). The variant S88D showed 2.41 (3 of 3 replicates; controls 0 of 9). The variant S88C S93A gave 2.96 (3 of 3 replicates; controls 2 of 9). With R28E Y30E S88N the result was 2.13 (3 of 3 replicates; controls 4 of 9).

The variant S26P R53V S88L gave 4.13 (1 of 3 replicates; controls 2 of 9). The variant L27W A32P S88P showed 4.04 (2 of 3 replicates; controls 4 of 9). With G24W L27Q S88Q the result was 3.74 (3 of 3 replicates; controls 4 of 9). The variant Y31P S88W F98K showed 1.83 (3 of 3 replicates; controls 1 of 9). The variant L27W S88D S93E showed no signal (0 of 3 replicates; controls 0 of 9). The variant S26Q N52S S88G gave 4.18 (2 of 3 replicates; controls 5 of 9).

With S88G S89M Q96L the result was 3.69 (2 of 3 replicates; controls 3 of 9). The variant D25Y S88D F98N gave no signal (0 of 3 replicates; controls 0 of 9). The variant G24Y S88A F98R gave 2.05 (3 of 3 replicates; controls 5 of 9). The variant L27R S88T showed 2.91 (2 of 3 replicates; controls 5 of 9). The variant R28K S88Y S89K gave 2.81 (3 of 3 replicates; controls 1 of 9). The variant P54T S88A showed 3.83 (3 of 3 replicates; controls 1 of 9).

For G49H S88T G94A, the assay gave 4.18 (1 of 3 replicates; controls 3 of 9). The variant Y31W N52P S88Y gave no signal (0 of 3 replicates; controls 1 of 9). With S88I S92A V97R the result was 3.88 (2 of 3 replicates; controls 5 of 9). The variant E23S R53E S88P gave 3.78 (2 of 3 replicates; controls 4 of 9).

5 of these entries, quoted again:

The variant N33F S88E G94M showed 4.45 (2 of 3 replicates; controls 3 of 9).
The variant R28E Y30E S88N showed 2.13 (3 of 3 replicates; controls 4 of 9).
The variant L27W S88D S93E showed no signal (0 of 3 replicates; controls 0 of 9).
The variant Y31T N51A S88Y showed 3.75 (3 of 3 replicates; controls 0 of 9).
The variant S26P R53V S88L showed 4.13 (1 of 3 replicates; controls 2 of 9).